Experimental findings from patent publication US20260085130A1 are described below.

The target in assay [1] is human Factor XIIa (FXIIa) (human) (UniProt P00748). Description: cell-based or functional assay.
For assay [2] the target is unchanged. Description: purified component inhibition assay (Ki^app, Morrison fit).
Assay [3] shares this target. As to the kind of experiment: inhibition of human FXIIa activity (FIG. 21).

M0183-C03 (antibody) displayed a Plasma Ki^app in assay [1] of 33 nM. In addition, the Ki in assay [2] is 0.006 nM.

M0192-G05 (antibody) had a Plasma Ki^app in assay [1] of 852 nM. The substance also registered a Ki in assay [2] of 0.015 nM.

In assay [1], M0310-A04 (antibody) displayed a Plasma Ki^app of 316 nM. The Ki in assay [2] stood at 0.015 nM.

In assay [1], M0192-F06 (antibody) registered a Plasma Ki^app of 304 nM. Also, the Ki in assay [2] is 0.009 nM.

On to M0184-F12 (antibody), for which, in assay [1], the Plasma Ki^app was 38 nM. Also, the Ki in assay [2] was 0.004 nM.

With M0192-H04 (antibody), the Plasma Ki^app in assay [1] turned out to be 485 nM. This substance also registered a Ki in assay [2] of 0.009 nM.

As to M0192-D02 (antibody), the Plasma Ki^app in assay [1] was determined as 279 nM. Also, the Ki in assay [2] amounted to 0.005 nM.

M0308-H03 (antibody): the Plasma Ki^app in assay [1] turned out to be 275 nM. In assay [2], this substance returned a Ki of 0.018 nM.

The substance M0184-B04 (antibody) returned a Plasma Ki^app in assay [1] of 269 nM. In addition, the Ki in assay [2] was found to be 0.008 nM.

M0192-H11 (antibody): the Plasma Ki^app in assay [1] turned out to be 101 nM. Further, in assay [2], the Ki was 0.006 nM. Also, in assay [3], the inhibitory activity came to 4.7 pM.

Regarding M0191-H09 (antibody), the Plasma Ki^app in assay [1] was 463 nM. The Ki in assay [2] was 0.016 nM.

Consider M0310-C06 (antibody), for which, in assay [1], the Plasma Ki^app amounted to 135 nM. Also, the Ki in assay [2] worked out at 0.057 nM.

Take M0182-D04 (antibody): the Plasma Ki^app in assay [1] came out at 96 nM. This substance also gave a Ki in assay [2] of 0.011 nM.

As for M0183-D08 (antibody), the Plasma Ki^app in assay [1] was determined as 118 nM. Also, the Ki in assay [2] is 0.011 nM.

On to M0178-A08 (antibody), for which the Plasma Ki^app in assay [1] came out at 381 nM. Besides, the Ki in assay [2] turned out to be 0.007 nM.

Take M0192-A03 (antibody): in assay [1], the Plasma Ki^app was 514 nM. In addition, in assay [2], the Ki worked out at 0.013 nM.

The substance M0191-E04 (antibody) had a Plasma Ki^app in assay [1] of 460 nM. Moreover, the Ki in assay [2] stood at 0.007 nM.

In assay [1], M0292-D07 (antibody) returned a Plasma Ki^app of 115 nM. In assay [2], this substance had a Ki of 0.014 nM.

M0177-C12 (antibody) displayed a Plasma Ki^app in assay [1] of 217 nM. In assay [2], this substance had a Ki of 0.018 nM.

In assay [1], M0308-F04 (antibody) displayed a Plasma Ki^app of 1570 nM. In assay [2], this substance returned a Ki of 0.017 nM.

Turning to M0310-G08 (antibody), the Plasma Ki^app in assay [1] turned out to be 796 nM. Also, the Ki in assay [2] amounted to 0.024 nM.

In turn, M0177-A06 (antibody) came in with a Plasma Ki^app in assay [1] of 458 nM. In assay [2], the Ki came to 0.017 nM.

As to M0183-H08 (antibody), in assay [1], the Plasma Ki^app came out at 76 nM. In assay [2], this substance showed a Ki of 0.005 nM.

M0310-F02 (antibody) displayed a Plasma Ki^app in assay [1] of 319 nM. The substance also registered a Ki in assay [2] of 0.106 nM.

As for M0192-F01 (antibody), in assay [1], the Plasma Ki^app was 174 nM. In addition, the Ki in assay [2] is 0.008 nM.

M0184-D01 (antibody) returned a Plasma Ki^app in assay [1] of 435 nM. In addition, in assay [2], the Ki worked out at 0.004 nM.

M0192-A01 (antibody) had a Plasma Ki^app in assay [1] of 198 nM. Besides, the Ki in assay [2] was determined as 0.017 nM.

M0191-E09 (antibody) returned a Plasma Ki^app in assay [1] of 31 nM. The substance also gave a Ki in assay [2] of 0.005 nM.

Regarding M0310-B09 (antibody), in assay [1], the Plasma Ki^app was 331 nM. This substance also gave a Ki in assay [2] of 0.012 nM.

M0310-G06 (antibody) registered a Plasma Ki^app in assay [1] of 353 nM. The Ki in assay [2] was determined as 0.007 nM.

Take M0182-H01 (antibody): in assay [1], the Plasma Ki^app was 359 nM.

Turning to M0183-B12 (antibody), the Plasma Ki^app in assay [1] turned out to be 1000 nM. This substance also returned a Ki in assay [2] of 0.011 nM.

M0191-A03 (antibody) showed a Plasma Ki^app in assay [1] of 176 nM. Also, in assay [2], the Ki was 0.013 nM.

For M0192-F07 (antibody), in assay [1], the Plasma Ki^app came out at 125 nM. The same substance gave a Ki in assay [2] of 0.007 nM.

With M0192-G03 (antibody), the Plasma Ki^app in assay [1] is 125 nM. Further, in assay [2], the Ki amounted to 0.018 nM.

Turning to M0191-H10 (antibody), in assay [1], the Plasma Ki^app amounted to 216 nM. The Ki in assay [2] was found to be 0.013 nM.

M0310-G07 (antibody) returned a Plasma Ki^app in assay [1] of 295 nM. In assay [2], this substance showed a Ki of 0.022 nM.
